Columns and labels:
Assay type in all cases: functional, cell-based
[1] = system: U-87MG ATCC; test: Inhibition of colony formation in human U87MG cells after 2 weeks by crystal violet staining-based assay
Procedure, shortened: (§1)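 Seeding: 250 cells per well for HCT-116, 300 for U87MG, MDA-MB-231 and PC-3; incubated overnight, then exposed to a range of concentrations for 2 weeks. Fixed in 4% paraformaldehyde 30 min at room temperature, stained with 0.1% crystal violet. Colonies over 50 cells counted; colony formation rate calculated; IC50 by nonlinear regression.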

[2] = system: MDA-MB-231; test: Inhibition of colony formation in human MDA-MB-231 cells after 2 weeks by crystal violet staining-based assay; procedure, shortened: as §1
[3] = system: PC-3; test: Inhibition of colony formation in human PC3 cells after 2 weeks by crystal violet staining-based assay; procedure, shortened: as §1
[4] = system: HCT-116; test: Inhibition of colony formation in human HCT116 cells after 2 weeks by crystal violet staining-based assay; procedure, shortened: as §1

Measured: inhibition

CNC(=O)c1ccccc1Nc1nc(Nc2cc(OC)c(OC)c(OC)c2)nc2nccn12
active: [1] Dose-dependent effect | [2] Dose-dependent effect | [3] Dose-dependent effect | [4] Dose-dependent effect

Reference: ChEMBL document CHEMBL3392964, “Design, synthesis, and evaluation of novel imidazo[1,2-a][1,3,5]triazines and their derivatives as focal adhesion kinase inhibitors with antitumor activity” (J Med Chem, 2015)
